Laboratory results as given in US20180209979A1, “METHOD FOR INDIVIDUALIZED CANCER THERAPY” (INSERM (INSTITUT NATIONAL DE LA SANTE ET DE LA RECHERCHE), priority 2015, published 2018).

Test system: CAL33 cells
Conditions: erlotinib 0.1 μmol/L; TRF2 knocked-down with sh2; four days; FIG. 8

## C#Cc1cccc(Nc2ncnc3cc(OCCOC)c(OCCOC)cc23)c1 [erlotinib]
  CAL33 proliferation (MTT): inhibited CAL33 proliferation
